Assay results reported in ChEMBL document CHEMBL1159159.

Tests used:
[1] = molecular target: T1, Steryl-sulfatase (Homo sapiens) (UniProt P08842); assay: Inhibition of estrone sulfatase at 1 uM in intact MCF-7 cells; details: MCF7
T1 sequence (whole entry): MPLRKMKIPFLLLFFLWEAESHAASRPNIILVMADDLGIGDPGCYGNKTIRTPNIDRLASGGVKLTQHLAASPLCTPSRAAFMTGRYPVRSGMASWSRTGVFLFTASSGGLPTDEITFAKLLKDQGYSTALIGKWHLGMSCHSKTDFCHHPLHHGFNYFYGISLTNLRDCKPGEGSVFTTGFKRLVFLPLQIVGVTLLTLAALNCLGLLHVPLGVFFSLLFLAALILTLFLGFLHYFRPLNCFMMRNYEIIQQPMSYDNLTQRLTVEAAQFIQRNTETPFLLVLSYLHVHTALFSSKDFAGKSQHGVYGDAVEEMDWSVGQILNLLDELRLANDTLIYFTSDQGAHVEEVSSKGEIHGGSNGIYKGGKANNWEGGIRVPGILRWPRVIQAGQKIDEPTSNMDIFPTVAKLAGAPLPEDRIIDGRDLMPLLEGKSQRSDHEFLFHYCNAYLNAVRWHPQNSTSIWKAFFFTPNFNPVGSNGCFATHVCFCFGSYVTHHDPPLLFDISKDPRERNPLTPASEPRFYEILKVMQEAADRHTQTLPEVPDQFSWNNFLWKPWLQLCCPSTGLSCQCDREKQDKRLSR

[2] = molecular target: T1, Steryl-sulfatase (Homo sapiens); assay: Inhibition of estrone sulfatase at 0.1 uM in intact MCF-7 cells; details: MCF7

`C[C@]12CC[C@@H]3c4ccc(O[P@](C)(=O)S)cc4CC[C@H]3[C@@H]1CCC2=O` showed an inhibition [1] of 74% and an inhibition [2] of 52%.
